# Measured values from BindingDB's records for doi:10.1074/jbc.272.51.31949 (Schering-Plough Research Institute, 1997).
# Molecular target: T1, Galanin receptor type 3 (Rattus norvegicus, UniProt O88626)
# T1 sequence (O88626 whole entry): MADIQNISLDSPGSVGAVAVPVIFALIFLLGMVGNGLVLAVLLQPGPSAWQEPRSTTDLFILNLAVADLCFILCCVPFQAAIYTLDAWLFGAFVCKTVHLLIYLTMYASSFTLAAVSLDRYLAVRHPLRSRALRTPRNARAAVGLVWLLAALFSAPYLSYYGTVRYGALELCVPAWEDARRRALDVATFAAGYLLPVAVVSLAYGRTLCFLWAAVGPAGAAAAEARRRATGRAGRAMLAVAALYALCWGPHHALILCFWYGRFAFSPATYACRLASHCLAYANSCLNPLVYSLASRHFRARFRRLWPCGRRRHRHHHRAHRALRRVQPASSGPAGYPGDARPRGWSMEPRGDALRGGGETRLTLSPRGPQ
smiles,measurement,value
CSCC[C@H](NC(=O)[C@H](CC(C)C)NC(=O)CNC(=O)[C@H](Cc1ccccc1)NC(=O)[C@H](Cc1ccccc1)NC(=O)[C@H](CCC(N)=O)NC(=O)[C@H](CCC(N)=O)NC(=O)[C@@H]1CCCN1C(=O)CNC(=O)[C@H](CC(C)C)NC(=O)[C@H](CC(C)C)NC(=O)[C@H](Cc1ccc(O)cc1)NC(=O)CNC(=O)[C@H](C)NC(=O)[C@H](CO)NC(=O)[C@H](CC(N)=O)NC(=O)[C@H](CC(C)C)NC(=O)[C@@H](NC(=O)[C@H](Cc1c[nH]c2ccccc12)NC(=O)CN)[C@@H](C)O)C(N)=O,Ki,85 nM
